Paper PMC2840614 (Bioorganic & medicinal chemistry letters, 2010)

Protein sequences, listed by entry. Tags and fused reporters are not part of them. Lines headed by an entry give the natural chain unless they say otherwise; changes in a name come on top.
UniProt P32300, whole entry: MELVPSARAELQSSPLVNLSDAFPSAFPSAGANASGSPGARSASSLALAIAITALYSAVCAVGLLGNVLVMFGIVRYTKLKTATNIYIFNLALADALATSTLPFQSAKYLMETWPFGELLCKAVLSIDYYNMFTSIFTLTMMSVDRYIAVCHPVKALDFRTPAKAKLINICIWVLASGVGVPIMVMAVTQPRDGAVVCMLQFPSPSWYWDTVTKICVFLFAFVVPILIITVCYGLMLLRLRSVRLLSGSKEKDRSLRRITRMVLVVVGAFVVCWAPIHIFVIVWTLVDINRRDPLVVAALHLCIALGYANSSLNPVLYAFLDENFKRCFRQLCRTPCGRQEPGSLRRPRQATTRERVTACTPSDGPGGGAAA

Key:
δ-opioid receptor [1] = target: T1, δ-opioid receptor (Mus musculus, UniProt P32300); assay: Effect on deltorphin C stimulated GTPγS binding in NG108-15 cell membranes; format: biochemical
δ-opioid receptor [2] = target: T1, δ-opioid receptor; settings: cited from earlier work

SMILES | Kb (δ-opioid receptor [1]) [nM] | GTPγS (pA2)δ (δ-opioid receptor [1]; antagonism of deltorphin C stimulated GTPγS binding, NG108-15 cell membranes, NA: not active (>20.000nM)) | pA2 δ (δ-opioid receptor [2]; antagonism of Deltorphin C in vitro) | pA2 δ (δ-opioid receptor [2]; δ-antagonism in vitro)
Cc1cc(O)cc(C)c1C[C@H](N)C(=O)N[C@H]1Cc2ccccc2CN(CC(=O)NCCNC(=O)CN2Cc3ccccc3C[C@H](NC(=O)[C@@H](N)Cc3c(C)cc(O)cc3C)C2=O)C1=O [compound 10, ethylene-bis(H-Dmt-Aba-Gly-NH)] | 18.2 | 7.74 | – | –
Cc1cc(O)cc(C)c1C[C@H](N)C(=O)N1Cc2ccccc2C[C@H]1C(=O)O [compound 5, H-Dmt-Tic-OH] | – | – | 8.48 | 8.48
Cc1cc(O)cc(C)c1C[C@H](N)C(=O)N1Cc2ccccc2C[C@H]1C(=O)NCC/C=C/CCNC(=O)[C@@H]1Cc2ccccc2CN1C(=O)[C@@H](N)Cc1c(C)cc(O)cc1C [compound 14, 1,6-(hex-3-ene)bis(H-Dmt-Tic-NH)] | 1.15 | – | – | –

Like-named read-outs stand apart in the source and are kept apart here.
